# Reference: US5731160A, “Induction of antigen specific T-lymphocyte responses by stimulation with peptide loaded MHC class I molecules on antigen processing defective mammalian cell lines” (Rijksuniversiteit Leiden, priority 1992, dated 1998)
# What was measured:
# Assay type in all cases: cell-based
# Conditions in all cases: addition of human β2-microglobulin
# [1] = system: human 174.CEM T2 cells; experiment: Peptide-loaded MHC Class I expression with added human β2-microglobulin, T2
# [2] = system: RMA-S cells and 174.CEM T2 cells; experiment: Primary CTL response induction with added human β2-microglobulin
# [3] = system: murine RMA-S cells; experiment: Peptide-loaded MHC Class I expression with added human β2-microglobulin, RMA-S
substance,measurement,setting,value
human β2-microglobulin: human β2-microglobulin added during peptide loading,Effect on peptide-loaded MHC Class I expression,[1],further enhances peptide-loaded MHC Class I expression
same,Effect on subsequent primary CTL response induction,[2],enhanced
same,Effect on peptide-loaded MHC Class I expression,[3],further enhances peptide-loaded MHC Class I expression
